Here are results for one molecule from patent publication US20230330242A1 (published 2023).

Amino acid sequences for entries named in this document (tags omitted). Residues count along the entry.
UniProt Q01973, 30-403 limits assumed: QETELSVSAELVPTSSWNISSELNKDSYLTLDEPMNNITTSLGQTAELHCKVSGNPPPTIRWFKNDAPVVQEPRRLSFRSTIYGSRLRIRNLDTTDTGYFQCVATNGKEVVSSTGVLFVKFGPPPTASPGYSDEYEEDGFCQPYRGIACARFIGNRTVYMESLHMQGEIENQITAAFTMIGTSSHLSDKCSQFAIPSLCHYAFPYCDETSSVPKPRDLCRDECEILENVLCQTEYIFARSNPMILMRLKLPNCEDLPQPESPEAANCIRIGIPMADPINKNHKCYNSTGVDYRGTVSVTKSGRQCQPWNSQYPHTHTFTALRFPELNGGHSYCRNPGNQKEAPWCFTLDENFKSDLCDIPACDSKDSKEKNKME

In the test the target is T1, Hu/Cy/Rh ROR1-His (human/cyno/rhesus, UniProt Q01973, in part).
T1 construct: Purified His-tagged ROR1 protein; also called HUMAN/CYNO/RHESUS ROR-1; not shown: His tag
Description: SPR, purified protein.

B1: ATX-P-890 (antibody, human IgG1, kappa, V domains shown)
VH: QVQLVQSGAEVKKPGASVKVSCKASGYTFTGYYMHWVRQAPGQGLEWMGWINPNSGGTNYAQKFQGRVTMTRDTSISTAYMELSRLRSDDTAVYYCVRDQVQLERFDSWGQGTLVTVSS
VL: [omitted - about 100 residues]
notes: Full length IgG (IgG1, kappa) expressed in HEK293; also called mAb C
As a reminder, the Kd is the constant that tells how readily two partners part at equilibrium. Low values mean higher affinity, high ones lower affinity. As usually defined, the koff is a measure of how fast the partners let go of each other. Read a high koff as a short-lived complex. A word on the kon: it is a measure of how fast the partners come together. A lower kon goes with slow association. B1 registered a Kd of 8.4 nM, a koff of 0.00314 s⁻¹ and a kon of 392000 M⁻¹ s⁻¹.
